From PubChem BioAssay AID651768 (National Center for Advancing Translational Sciences (NCATS), 2012)
The entries are a selection whose mix differs from that of the whole data set. The source made the active and inactive calls. Calls follow the shape of the dose curve; as a rule, active = well fitted inhibition curve with a large enough effect; inconclusive = small, poorly fitted or top-dose-only effect; inactive = no such curve, though single readings can be large or run the other way.
% is scaled to controls: 0 for no effect and ±100 for the full control effect.
Also: nearly all actives have a fitted effect of over 55% in size.

The chains behind the UniProt entries cited, without tags or fusion partners.
UniProt Q14191, whole entry: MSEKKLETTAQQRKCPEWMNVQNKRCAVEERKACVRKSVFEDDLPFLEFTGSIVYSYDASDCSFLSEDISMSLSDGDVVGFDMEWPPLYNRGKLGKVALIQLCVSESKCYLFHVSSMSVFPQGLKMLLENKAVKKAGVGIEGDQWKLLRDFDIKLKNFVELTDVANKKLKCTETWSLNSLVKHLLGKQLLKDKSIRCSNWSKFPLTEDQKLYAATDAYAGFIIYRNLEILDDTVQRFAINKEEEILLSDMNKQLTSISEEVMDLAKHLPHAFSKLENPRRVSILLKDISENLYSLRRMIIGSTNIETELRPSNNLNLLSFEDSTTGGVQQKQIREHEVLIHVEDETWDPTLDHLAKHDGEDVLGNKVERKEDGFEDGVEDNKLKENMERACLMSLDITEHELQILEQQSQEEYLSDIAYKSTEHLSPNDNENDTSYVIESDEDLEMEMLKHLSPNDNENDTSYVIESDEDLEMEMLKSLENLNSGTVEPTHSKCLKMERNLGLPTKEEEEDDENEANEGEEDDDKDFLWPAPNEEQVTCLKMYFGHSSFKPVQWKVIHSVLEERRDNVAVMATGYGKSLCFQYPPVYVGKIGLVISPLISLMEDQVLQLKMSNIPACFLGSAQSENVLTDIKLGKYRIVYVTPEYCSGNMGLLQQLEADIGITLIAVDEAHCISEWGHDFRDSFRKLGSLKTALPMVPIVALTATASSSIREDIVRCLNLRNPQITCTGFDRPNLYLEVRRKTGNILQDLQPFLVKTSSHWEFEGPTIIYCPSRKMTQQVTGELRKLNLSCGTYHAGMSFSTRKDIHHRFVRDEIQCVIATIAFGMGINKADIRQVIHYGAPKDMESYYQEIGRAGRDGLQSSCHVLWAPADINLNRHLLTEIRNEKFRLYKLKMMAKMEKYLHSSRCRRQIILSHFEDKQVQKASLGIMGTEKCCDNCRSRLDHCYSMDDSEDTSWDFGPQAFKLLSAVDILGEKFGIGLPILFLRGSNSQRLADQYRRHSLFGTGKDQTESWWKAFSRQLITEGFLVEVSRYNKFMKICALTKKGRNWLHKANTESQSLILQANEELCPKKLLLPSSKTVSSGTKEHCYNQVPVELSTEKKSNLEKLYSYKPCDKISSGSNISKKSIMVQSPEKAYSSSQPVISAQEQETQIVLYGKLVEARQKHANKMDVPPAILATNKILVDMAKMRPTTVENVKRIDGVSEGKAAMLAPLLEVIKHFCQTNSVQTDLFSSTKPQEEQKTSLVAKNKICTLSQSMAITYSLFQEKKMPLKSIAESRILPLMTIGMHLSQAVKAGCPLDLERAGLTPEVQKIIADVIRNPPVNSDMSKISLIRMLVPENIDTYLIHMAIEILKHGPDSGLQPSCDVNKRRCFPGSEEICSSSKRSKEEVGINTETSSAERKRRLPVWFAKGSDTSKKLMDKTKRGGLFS

What follows are molecules tested against Bifunctional 3'-5' exonuclease/ATP-dependent helicase WRN (Homo sapiens) (UniProt Q14191) (assay: qHTS for Inhibitors of WRN Helicase). Conditions: WRN helicase unwinding, fluorescent forked duplex, kinetic; at 114 µM (top of the series) unless noted.
Text: Inhibition of DNA repair is proposed as a strategy for combating cancer. Synthetic lethality is an approach that exploits preexisting DNA repair deficiencies in certain tumors to develop inhibitors of DNA repair pathways that compensate for the tumor-associated DNA repair deficiency. Because helicases play critical roles in the DNA damage response and in DNA repair, particularly in actively dividing and replicating cells, characterization of synthetic lethal relationships of DNA helicases may be of value in developing improved anticancer treatment strategies; moreover, small molecules that specifically target a given DNA helicase may be useful for understanding its role in cellular nucleic acid metabolism. The goal of this project is to identify small molecule, non-covalent chemical inhibitors of the Werner syndrome (WS) helicase (WRN), which plays an important role in cell proliferation, the replication stress response, and DNA repair. […] The WRN gene product that is defective in the chromosomal instability disorder has DNA helicase and exonuclease activities and interacts with a number of nuclear proteins to maintain genomic stability. We will employ an optimized high-throughput screening assay that utilizes a fluorescence intensity modulation scheme with a fluorophore and quencher positioned near one another within a duplex deoxyoligonucleotide that contains a single forked structure. After a high-throughput screen of the ~350,000-member Molecular Libraries Small Molecule Repository (MLSMR) collection, followed by data analysis and hit selection, a panel of confirmatory, as well as secondary and ternary, assays will be employed to identify high-confidence WRN inhibitors. Structure-activity relationships will be investigated for the top candidate inhibitor series through medchem expansion. These are the results of the primary screening campaign against the MLSMR. NIH Chemical Genomics Center [NCGC] NIH Molecular Libraries Probe Centers Network [MLPCN] MLPCN Grant: MH096530 Assay Submitter (PI): Robert Brosh, National Institute of Aging
Three muL of reagents (buffer in columns 3 and 4 as negative controls; WRN at 20 nM final concentration in columns 1 and 2 as positive controls; columns 5-48 as test reactions) will be dispensed into a 1536-well Greiner black plate via solenoid-valve based nanoliter dispensers. Compounds (23 nL each in columns 5-48) and control (23 nL each in column 2 as dose-response) will be transferred via a Kalypsys pintool equipped with a 1536-pin array. Plates will be incubated for 15 min at room temperature, and then 1 µL of substrate (100 nM forked duplex oligonucleotide and 2 mM ATP final concentrations) will be added to start reaction, and plate will be transferred into a ViewLux high-throughput CCD imager where reaction progress is measured in kinetic mode using standard red-fluorescence optics (excitation filter 525 nm, emission filter 598 nm).
`O=C(OCCN1CCN(CCOCc2ccccc2)CC1)C(O)(c1ccccc1)c1ccccc1` was tested, and the activity change, negative = inhibition was inactive: -11.2%. `CP(=O)(Nc1ccccc1F)Oc1ccccc1` (stereo not given) was tested, and the activity change, negative = inhibition was inactive: -16%. With `CC(C)c1ccc(OP(C)(=O)Nc2ccc(SC(F)(F)F)cc2)cc1` (stereo not given) the activity change, negative = inhibition was inactive: -9.59%. With `Cc1c([N+](=O)[O-])cc([N+](=O)[O-])c(Br)c1[N+](=O)[O-]` the activity change, negative = inhibition was inactive: -35.4%. In the case of `CCN(CC)CCCOC(=O)C(O)(c1ccccc1)C1CCCCC1` (stereo not given), the activity change, negative = inhibition was inactive: 1.27%. For `CP(=O)(Nc1ccccc1)Oc1ccc(F)cc1` (stereo not given), the activity change, negative = inhibition was inactive: -9.29%. With `CCCCCOc1ccc(NP(C)(=O)Oc2ccc(Cl)cc2Cl)cc1` (stereo not given) the activity change, negative = inhibition was inactive: -17.5%. In the case of `CCOC(=O)c1ccc(NP(C)(=O)Oc2ccc(F)cc2)cc1` (stereo not given), the activity change, negative = inhibition was inactive: -7.48% [at 57.1 µM]. In the case of `COc1ccc(OP(C)(=O)Nc2ccc(SC(F)(F)F)cc2)cc1` (stereo not given), the activity change, negative = inhibition was inactive: -9.74%. `O=[N+]([O-])c1ccc(OP2(=O)COCCO2)cc1` (stereo not given) was tested, and the activity change, negative = inhibition was inactive: 13.7%. `Cc1cc(-c2cccc3ccccc23)c(C)cn1.O=[N+]([O-])c1cc([N+](=O)[O-])c(O)c([N+](=O)[O-])c1` was tested, and the activity change, negative = inhibition was inactive: -7.46%. In the case of `Cc1c(C(c2ccc3c(c2)OCO3)c2c(C)n(C)n(-c3ccccc3)c2=O)c(=O)n(-c2ccccc2)n1C.O=[N+]([O-])c1cc([N+](=O)[O-])c(O)c([N+](=O)[O-])c1`, the activity change, negative = inhibition was inactive: -7.9%. In the case of `COc1ccc(OP(C)(=O)Nc2cccc(Br)c2)cc1` (stereo not given), the activity change, negative = inhibition was inactive: 5.05%. `CN(C)CCOC(=O)C(O)(c1ccccc1)C1CCCCC1` (stereo not given) was tested, and the activity change, negative = inhibition was inactive: -3.49%. With `CP(=O)(Nc1ccc2c(c1)OCCO2)Oc1ccccc1` (stereo not given) the activity change, negative = inhibition was inactive: -3.92%. `Cc1ccccc1NP(C)(=O)Nc1ccccc1C` was tested, and the activity change, negative = inhibition was inactive: -1.43%. In the case of `O=[N+]([O-])c1cc([N+](=O)[O-])c(C(F)(F)F)c([N+](=O)[O-])c1O`, the activity change, negative = inhibition was inactive: 1.51%. For `CP(=O)(Nc1ccc(SC(F)(F)F)cc1)Oc1ccc(F)cc1` (stereo not given), the activity change, negative = inhibition was inactive: 1.79%. `CCOP(C)(=S)SCC(=O)NC(C)(CC)C(=O)O` (stereo not given) was tested, and the activity change, negative = inhibition was inactive: -10.8%. In the case of `COc1ccccc1OP(C)(=O)Nc1ccccc1Br` (stereo not given), the activity change, negative = inhibition was inactive: -1.42%. With `CC(C)(C)c1ccc(OP(C)(=O)O)cc1` the activity change, negative = inhibition was inactive: 6.23%. For `CP(=O)(Nc1ccc(Cl)cc1)Oc1ccc(F)cc1` (stereo not given), the activity change, negative = inhibition was inactive: -16.1%. In the case of `CN(C)C(=O)c1c([N+](=O)[O-])cc([N+](=O)[O-])cc1[N+](=O)[O-]`, the activity change, negative = inhibition was inactive: 1.83%. With `CCN(CC)CC(O)COC(=O)C(O)(c1ccccc1)C1CCCCC1` (stereo not given) the activity change, negative = inhibition was inactive: -1.87%. `COc1ccc(OP(C)(=O)Nc2ccc(Br)cc2)cc1` (stereo not given) was tested, and the activity change, negative = inhibition was inactive: 1.18%.
